The values below come from PMC3760508 (Journal of medicinal chemistry, 2009).

The series can be described thus: particle. The series is classed as physicochemical. The following applies: flow cytometry, in some cases confirmed by DLS. A general note: A flow cytometer gives signals particle by particle.

Take `Nc1ccccc1-c1nnc(C(=O)NCCN2CCOCC2)o1` [Compound 17]: the “particles? lowest evaluated concentration at which particle formation was observed” value is greater than 200 µM.
